# Results reported in paper PMC11292843 (ACS Omega, 2024).
# Biological target: T1, hTCPTP (Homo sapiens, UniProt P17706)
# T1 construct: His tag (vector pET-28a(+)-TEV, with TEV site); made in house; host or cells: E. coli BL21 (DE3)
# T1 sequence (P17706 1-415): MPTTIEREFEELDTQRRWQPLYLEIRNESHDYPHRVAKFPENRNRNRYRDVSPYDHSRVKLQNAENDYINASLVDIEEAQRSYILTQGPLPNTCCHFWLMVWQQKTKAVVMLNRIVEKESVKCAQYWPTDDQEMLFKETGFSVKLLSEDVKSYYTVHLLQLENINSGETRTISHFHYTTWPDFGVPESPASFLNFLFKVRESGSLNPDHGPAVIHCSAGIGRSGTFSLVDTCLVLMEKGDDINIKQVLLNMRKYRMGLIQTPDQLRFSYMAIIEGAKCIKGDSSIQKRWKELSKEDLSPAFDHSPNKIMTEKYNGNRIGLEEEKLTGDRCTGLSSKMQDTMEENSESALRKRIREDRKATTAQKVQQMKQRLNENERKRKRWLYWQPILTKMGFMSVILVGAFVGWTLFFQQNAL
# Experiment: Selectivity assay against TCPTP
# Assay type: biochemical
# Conditions: hPTP1B1–400 vs hTCPTP
# Method: A spectrocolorimetric method previously described[3] was employed to test the inhibitory effect of the new compounds against PTP1B. […] Enzyme solutions containing pNPP and inhibitors were incubated at 37 °C for 15 min. […] The percentage of inhibition was plotted as a function of the inhibitor concentrations.
# Similarly to the IC50, the assays to determine the selectivity were carried out in the same experimental conditions using hPTP1B1–400 and hTCPTP.
# The expression vector pET-28a(+)-TEV was obtained from Invitrogen (Waltham, MA, USA). E. coli strain DH5α and BL21 (DE3) were purchased from Invitrogen (Waltham, MA, USA). The gene PTPN2 was subcloned into the expression vector pET-28a (+)-TEV, using the NDEI and BAMHI cloning sites. The construction pET-28A(+)-TEV–PTPN2 was transformed into E. coli strain BL21 (DE3). Transformed E. coli cells were grown in LB media containing kanamycin ([…]) at 37 °C for 6 h with continuous agitation (250 rpm). Once the cultures reached an A600 of 0.6 (about 6 h), protein expression was induced with 1 mM IPTG at 37 °C, 250 rpm for 8 h. After centrifuge (4500 rpm, 15 min, 4 °C), the grown and IPTG-induced cultures and bacterial pellet were resuspended in Tris buffer (pH 6.8) and lysed by sonication (10 cycles, intervals of 30 s) in an ice–water bath with an ultrasonic processor (Cole-Parmer, Vernon Hills, IL, USA). […]
structure (smiles),measurement,value
"O=C(O)C(=O)Nc1sc2c(c1C(=O)O)CCNC2 [TCS401, reference compound]",selectivity (PTP1B over TCPTP),No
